From US20160083400A1, “TRICYCLIC GUANIDINE DERIVATIVE” (Sunovion Pharmaceuticals Inc., priority 2014, published 2016)

Amino acid sequences for entries named in this document (tags omitted).
UniProt Q01064, whole entry: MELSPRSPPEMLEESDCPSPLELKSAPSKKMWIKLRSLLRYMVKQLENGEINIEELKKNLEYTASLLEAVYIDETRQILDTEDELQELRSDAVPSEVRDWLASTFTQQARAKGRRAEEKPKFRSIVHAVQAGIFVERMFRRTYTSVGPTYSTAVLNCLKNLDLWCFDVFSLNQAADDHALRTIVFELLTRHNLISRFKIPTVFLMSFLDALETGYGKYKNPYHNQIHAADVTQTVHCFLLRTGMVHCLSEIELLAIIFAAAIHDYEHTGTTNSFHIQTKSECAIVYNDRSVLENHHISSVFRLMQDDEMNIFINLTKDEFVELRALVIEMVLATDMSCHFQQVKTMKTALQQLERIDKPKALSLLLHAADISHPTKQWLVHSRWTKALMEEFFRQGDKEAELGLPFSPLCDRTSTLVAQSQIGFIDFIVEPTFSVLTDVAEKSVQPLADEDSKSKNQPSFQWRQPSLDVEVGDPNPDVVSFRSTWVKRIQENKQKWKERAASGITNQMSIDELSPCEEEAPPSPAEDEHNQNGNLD

The molecules below were run against PDE1B (Homo sapiens, UniProt Q01064) (assay: In vitro HTRF PDE1 inhibition assay (PDE1B)). Settings: read-out: IC50 (μM), in vitro PDE1B HTRF Assay, 100 nM cyclic GMP, calmodulin, 45 minutes at 37° C.

Row | SMILES | IC50 [µM]
1 | O=c1c2cnc(C3CCOCC3)n2nc2n1CC1(CCCc3ccccc31)N2 (stereo not drawn) | 1 to 10
2 | Cc1cccc(C2Cn3c(nn4c(C5CCOCC5)ncc4c3=O)N2)c1 (single isomer, unassigned) [116] | 1 to 10
3 | CC(C)c1ncc2c(=O)n3c(nn12)N[C@H](c1ccc(C(C)(C)C)nc1)C3 | 1 to 10
4 | Cc1cncc(C2Cn3c(nn4c(C5CCCC5)ncc4c3=O)N2)c1 (single isomer, unassigned) [214] | 1 to 10
5 | COc1cc(C)ccc1C1Cn2c(nn3c(C4CCOCC4)ncc3c2=O)N1 (single isomer, unassigned) [114] | 1 to 10
6 | CC(C)c1ncc2c(=O)n3c(nn12)N[C@@H](c1ccc(C(F)(F)F)nc1)C3 | < 1
7 | CCc1ccc([C@@H]2Cn3c(nn4c(C(C)C)ncc4c3=O)N2)nc1 | 1 to 10
8 | CC(C)c1ncc2c(=O)n3c(nn12)NC(c1ccc(F)cc1)C3 (stereo not drawn) | < 1
9 | CC(C)n1ncc2c(=O)n3c(nc21)NC(c1ccc(F)cc1)C3 (stereo not drawn) | < 1
10 | CC(C)c1ncc2c(=O)n3c(nn12)NC(c1ccc(C#N)cc1)C3 (stereo not drawn) | < 1
11 | CC1(c2ncc3c(=O)n4c(nn23)N[C@@H](c2ccc(Cl)cc2)C4)CCCC1 | < 1
12 | O=c1c2cnc(C3(C(F)(F)F)CC3)n2nc2n1C[C@H](c1ccc(Cl)cc1)N2 | < 1
13 | CC(C)c1ccc(C2Cn3c(nn4c(C5CCOCC5)ncc4c3=O)N2)cc1 (single isomer, unassigned) | < 1
14 | O=c1c2cnc(C3CCOCC3)n2nc2n1CC(c1ccc(Cl)cn1)N2 (stereo not drawn) | < 1
15 | CCc1cnc(C2Cn3c(nn4c(C(C)C)ncc4c3=O)N2)cn1 (single isomer, unassigned) | 10 to 100
16 | COc1ccc([C@@H]2Cn3c(nn4c(C(C)C)ncc4c3=O)N2)cn1 | < 1
17 | O=c1c2cnn(C3CCCC3)c2nc2n1CCC(Cc1ccc(Cl)cc1)N2 (stereo not drawn) | < 1
18 | CC(C)n1ncc2c(=O)n3c(nc21)NC(c1cccc(Cl)c1)C3 (stereo not drawn) | < 1
19 | CC(C)c1ccc(C2Cn3c(nn4c(C(C)C)ncc4c3=O)N2)nc1 (single isomer, unassigned) [201] | 1 to 10
20 | O=c1c2cnc(C3CCOCC3)n2nc2n1CC(c1ccc(C(F)(F)F)cc1)N2 (single isomer, unassigned) | < 1
21 | Cc1ccc(C2Cn3c(nn4c(C(C)C)ncc4c3=O)N2)nc1 (single isomer, unassigned) [209] | 10 to 100
22 | O=c1c2cnc(C3CCOCC3)n2nc2n1CC(c1ccc(Cl)cc1)N2 (stereo not drawn) | < 1
23 | CCc1ccc([C@H]2Cn3c(nn4c(C(C)C)ncc4c3=O)N2)cn1 | < 1
24 | COc1ccc(CC2CCn3c(nc4c(cnn4C4CCCC4)c3=O)N2)cc1 (stereo not drawn) | < 1
25 | O=c1c2cnc(C3CCOCC3)n2nc2n1CC(c1cccc(Cl)c1)N2 (single isomer, unassigned) | < 1
26 | CCc1ccc([C@@H]2Cn3c(nn4c(C(C)C)ncc4c3=O)N2)cn1 | 1 to 10

Other lines, results leading:

Row | IC50 [µM] | SMILES
27 | < 1 | COc1cccc(C2Cn3c(nn4c(C5CCOCC5)ncc4c3=O)N2)c1 (single isomer, unassigned) [112]
28 | < 1 | COc1ccc(C2Cn3c(nn4c(C5CCOCC5)ncc4c3=O)N2)cc1 (stereo not drawn)
29 | < 1 | CC(C)Cc1ncc2c(=O)n3c(nn12)NC(c1ccc(Cl)cc1)C3 (stereo not drawn)
30 | < 1 | Cc1cncc(C2Cn3c(nn4c(C5CCCC5)ncc4c3=O)N2)c1 (single isomer, unassigned) [215]
31 | < 1 | CC(C)c1ncc2c(=O)n3c(nn12)NCC3
32 | 1 to 10 | CC(C)c1ncc2c(=O)n3c(nn12)N[C@H](c1ccc(C(F)(F)F)nc1)C3
33 | 1 to 10 | O=c1c2cnc(C3CCCC3)n2nc2n1CC(c1cncc(Cl)c1)N2 (single isomer, unassigned)
34 | < 1 | CC[C@H](C)c1ncc2c(=O)n3c(nn12)N[C@@H](c1ccc(Cl)cc1)C3
35 | < 1 | O=c1c2ccnc(C3CCOCC3)c2nc2n1C(c1ccc(Cl)cc1)CCN2 (stereo not drawn)
36 | < 1 | COCc1ncc2c(=O)n3c(nn12)N[C@@H](c1ccc(Cl)cc1)C3
37 | < 1 | CO[C@H](C)c1ncc2c(=O)n3c(nn12)N[C@@H](c1ccc(Cl)cc1)C3
38 | 1 to 10 | Cc1ccnc(C2Cn3c(nn4c(C5CCCC5)ncc4c3=O)N2)c1 (single isomer, unassigned) [217]
39 | 1 to 10 | COc1cncc(C2Cn3c(nn4c(C5CCCC5)ncc4c3=O)N2)c1 (single isomer, unassigned) [219]
40 | < 1 | CO[C@@H](C)c1ncc2c(=O)n3c(nn12)N[C@@H](c1ccc(Cl)cc1)C3
41 | 1 to 10 | COc1cccc(C2Cn3c(nn4c(C5CCOCC5)ncc4c3=O)N2)c1 (single isomer, unassigned) [113]
42 | < 1 | CC(C)c1ncc2c(=O)n3c(nn12)NC(c1ccccc1)C3 (stereo not drawn)
43 | < 1 | Cc1ccnc(C2Cn3c(nn4c(C5CCCC5)ncc4c3=O)N2)c1 (single isomer, unassigned) [216]
44 | < 1 | CCc1ccc(C2Cn3c(nn4c(C5CCOCC5)ncc4c3=O)N2)cc1 (single isomer, unassigned)
45 | < 1 | CC[C@@H](C)c1ncc2c(=O)n3c(nn12)N[C@@H](c1ccc(Cl)cc1)C3 (single isomer, unassigned)

Row | IC50 [µM] | SMILES
46 | 10 to 100 | COCc1cc(Cl)ccc1C1Cn2c(nn3c(C4CCOCC4)ncc3c2=O)N1 (single isomer, unassigned) [210]
47 | < 1 | CCc1ccc(C2Cn3c(nn4c(C(C)C)ncc4c3=O)N2)nn1 (single isomer, unassigned) [206]
48 | < 1 | O=c1c2cnc(CC3CC3)n2nc2n1C[C@H](c1ccc(Cl)cc1)N2
49 | < 1 | COc1cc(C)ccc1C1Cn2c(nn3c(C4CCOCC4)ncc3c2=O)N1 (single isomer, unassigned) [115]
50 | < 1 | COc1cncc(C2Cn3c(nn4c(C5CCCC5)ncc4c3=O)N2)c1 (single isomer, unassigned) [218]
51 | 1 to 10 | COCc1cc(Cl)ccc1C1Cn2c(nn3c(C4CCOCC4)ncc3c2=O)N1 (single isomer, unassigned) [211]
52 | 1 to 10 | CC(C)c1ccc(C2Cn3c(nn4c(C(C)C)ncc4c3=O)N2)cn1 (single isomer, unassigned) [204]
53 | < 1 | CC(C)c1ccc(C2Cn3c(nn4c(C(C)C)ncc4c3=O)N2)cn1 (single isomer, unassigned) [203]
54 | 10 to 100 | CO[C@H](C)c1ncc2c(=O)n3c(nn12)NC(c1ccc(C(C)C)cn1)C3 (single isomer, unassigned) [222]
55 | < 1 | CO[C@H](C)c1ncc2c(=O)n3c(nn12)NC(c1ccc(C(C)C)cn1)C3 (single isomer, unassigned) [220]
56 | < 1 | CC(C)c1ncc2c(=O)n3c(nn12)NC(c1ccc(Cl)cc1)C3 (stereo not drawn)
57 | < 1 | Cc1cccc(C2Cn3c(nn4c(C5CCOCC5)ncc4c3=O)N2)c1 (single isomer, unassigned) [117]
58 | < 1 | COc1ccc(C2Cn3c(nn4c(C(C)C)ncc4c3=O)N2)cc1 (stereo not drawn)
59 | < 1 | Cc1ccc(C2Cn3c(nn4c(C(C)C)ncc4c3=O)N2)nc1 (single isomer, unassigned) [208]
60 | < 1 | CO[C@@H](C)c1ncc2c(=O)n3c(nn12)NC(c1ccc(C(C)C)cn1)C3 (single isomer, unassigned) [221]
61 | < 1 | CCc1ccc(C2Cn3c(nn4c(C(C)C)ncc4c3=O)N2)nc1 (single isomer, unassigned)
62 | 10 to 100 | CCc1ccc(C2Cn3c(nn4c(C(C)C)ncc4c3=O)N2)nn1 (single isomer, unassigned) [205]
63 | < 1 | CC(C)c1ncc2c(=O)n3c(nn12)NC(c1cccc(Cl)c1)C3 (stereo not drawn)
